In ChEMBL document CHEMBL3244256 (J Med Chem, 1979):

Assays:
Mus musculus [1] = assay: Antiradiation activity in po dosed whole-body gamma-irradiated mouse assessed as increase in mouse survival rate compound administered 30 mins prior irradiation
Mus musculus [2] = assay: Antiradiation activity in ip dosed whole-body gamma-irradiated mouse assessed as mouse survival compound administered 15 mins prior irradiation measured after 30 days relative to control
Mus musculus [3] = assay: Antiradiation activity in ip dosed whole-body gamma-irradiated mouse assessed as increase in mouse survival rate compound administered 15 mins prior irradiation
Mus musculus [4] = assay: Antiradiation activity in po dosed whole-body gamma-irradiated mouse assessed as mouse survival compound administered 30 mins prior irradiation measured after 30 days relative to control
Mus musculus [5] = assay: Antiradiation activity in po dosed whole-body gamma-irradiated mouse assessed as mouse survival compound administered 30 to 60 mins prior irradiation measured after 30 days relative to control
Mus musculus [6] = assay: Antiradiation activity in po dosed whole-body gamma-irradiated mouse assessed as increase in mouse survival rate compound administered 30 to 60 mins prior irradiation
Mus musculus [7] = assay: Antiradiation activity in ip dosed whole-body gamma-irradiated mouse assessed as increase in mouse survival rate compound administered 30 mins prior irradiation
Mus musculus [8] = assay: Antiradiation activity in ip dosed whole-body gamma-irradiated mouse assessed as mouse survival compound administered 30 mins prior irradiation measured after 30 days relative to control
Mus musculus [9] = assay: Antiradiation activity in po dosed whole-body gamma-irradiated mouse assessed as mouse survival compound administered 60 mins prior irradiation measured after 30 days relative to control
Mus musculus [10] = assay: Antiradiation activity in po dosed whole-body gamma-irradiated mouse assessed as increase in mouse survival rate compound administered 60 mins prior irradiation

SMILES | MED (Mus musculus [1]) | Survival (Mus musculus [2]) | ED50 (Mus musculus [3]) | MED (Mus musculus [3]) | Survival (Mus musculus [4]) | Survival (Mus musculus [5]) | MED (Mus musculus [6]) | ED50 (Mus musculus [7]) | MED (Mus musculus [7]) | Survival (Mus musculus [8]) | Survival (Mus musculus [9]) | MED (Mus musculus [10])
NCCCC(N)CSP(=O)(O)O (stereo unspecified) | 1000 mg/kg | 100% | 100 mg/kg | 250 mg/kg | 0% | – | – | – | – | – | – | –
NCC(N)CSP(=O)(O)O (stereo unspecified) | – | – | – | – | – | 0% | 800 mg/kg | 230 mg/kg | 400 mg/kg | 80% | – | –
NCCC[C@H](N)CSP(=O)(O)O | 1000 mg/kg | 100% | 54 mg/kg | 200 mg/kg | 0% | – | – | – | – | – | – | –
NCCCCCC(N)CSP(=O)(O)O (stereo unspecified) | 800 mg/kg | 100% | 94 mg/kg | 200 mg/kg | 0% | – | – | – | – | – | 30% | 400 mg/kg
NCC[C@H](N)CSP(=O)(O)O | 1000 mg/kg | 90% | 83 mg/kg | 250 mg/kg | 0% | – | – | – | – | – | – | –
NCCCCC(N)CSP(=O)(O)O (stereo unspecified) | 500 mg/kg | 90% | 24 mg/kg | 250 mg/kg | 60% | – | – | – | – | – | 20% | 500 mg/kg
NCCCC[C@H](N)CSP(=O)(O)O | 500 mg/kg | 70% | 25 mg/kg | 62.5 mg/kg | 80% | – | – | – | – | – | 10% | 500 mg/kg
